Columns and labels:
[1] = target: T1, PvGGPPS (P. vivax geranylgeranyl pyrophosphate synthase, PVX_092040) (Plasmodium vivax, UniProt A5K4U6, N206D/T113M); assay: biochemical
[2] = target: T1, PvGGPPS (P. vivax geranylgeranyl pyrophosphate synthase, PVX_092040); assay: biochemical; remark: listed apart in the source

O=P(O)(O)C(O)(Cn1ccnc1)P(=O)(O)O [ZOL] was tested, and the IC50 [1] was 43.3 ± 3.3 nM and the Ki [2] was 10.7 ± 1.2 nM.

From paper PMC3030337 (The Journal of Biological Chemistry, 2010)
